What follows are compounds tested against human opioid receptor-like (ORL-1) (Homo sapiens (Human), UniProt P41146) (assay: In vitro ORL-1 receptor [35S]GTPγS functional assay). Settings: not given.

How did the EC50 turn out when `O=C(O)CNc1nc2ccccc2n1C1C[C@H]2CCC[C@@H](C1)N2[C@H]1C[C@@H]2CCC[C@@H](C2)C1` (stereo partly drawn) was run?
The EC50 was 64.8 nM.

`Cc1nnc(Cc2nc3ccccc3n2[C@H]2C[C@H]3CCC[C@@H](C2)N3[C@@H]2C[C@@H]3CCCC[C@@H](C3)C2)[nH]1` was tested. Which EC50 did it give?
The EC50 was 5.61 nM.

For `O=C(O)CN1CCC[C@H]1c1nc2ccccc2n1[C@H]1C[C@H]2CCC[C@@H](C1)N2[C@@H]1C[C@@H]2CCCC[C@@H](C2)C1`, which EC50 is on record?
Its EC50 is 16.2 nM.

Which EC50 does the source give for `c1ccc2c(c1)nc(-c1cnccn1)n2[C@H]1C[C@H]2CCC[C@@H](C1)N2[C@@H]1C[C@@H]2CCCC[C@@H](C2)C1` here?
Its EC50 is 3 nM.

For `c1ccc2c(c1)nc(-c1cnccn1)n2[C@H]1C[C@H]2CCC[C@@H](C1)N2[C@H]1C[C@@H]2CCC[C@@H](C2)C1`, which EC50 is on record?
The EC50 was 8 nM.

`Cc1nc(C)c(-c2nc3ccccc3n2[C@H]2C[C@H]3CCC[C@@H](C2)N3[C@H]2C[C@@H]3CCC[C@@H](C3)C2)s1` was tested. Which EC50 did it give?
Its EC50 is 71.7 nM.

How did the EC50 turn out when `COC(=O)/N=c1\n(CC(N)=O)c2ccccc2n1C1CCN(C2CCCCCCC2)CC1` was run?
The EC50 was 124 nM.

`Cn1ccnc1CN1CCOC[C@H]1Cc1nc2ccccc2n1[C@H]1C[C@H]2CCC[C@@H](C1)N2[C@@H]1C[C@@H]2CCCC[C@@H](C2)C1` was tested. Which EC50 did it give?
Its EC50 is 26.9 nM.

With `c1ccc2c(c1)nc(Cc1nnn[nH]1)n2[C@H]1C[C@H]2CCC[C@@H](C1)N2[C@@H]1C[C@@H]2CCCC[C@@H](C2)C1` as the compound, how does the EC50 read?
The EC50 was 38.4 nM.

`Cc1cc(-c2nc3ccccc3n2[C@H]2C[C@H]3CCC[C@@H](C2)N3[C@H]2C[C@@H]3CCC[C@@H](C3)C2)no1` was tested. Which EC50 did it give?
Its EC50 is 14.3 nM.

For `O=C1CC[C@@H](Cc2nc3ccccc3n2[C@H]2C[C@H]3CCC[C@@H](C2)N3[C@@H]2C[C@@H]3CCCC[C@@H](C3)C2)N1`, which EC50 is on record?
The EC50 was 3.6 nM.

How did the EC50 turn out when `O=C(O)CN1CCC(Cc2nc3ccccc3n2[C@H]2C[C@H]3CCC[C@@H](C2)N3[C@@H]2C[C@@H]3CCCC[C@@H](C3)C2)CC1` was run?
The EC50 was 37 nM.

With `CS(=O)(=O)NCCN1CCC[C@@H](Cc2nc3ccccc3n2[C@H]2C[C@H]3CCC[C@@H](C2)N3[C@@H]2C[C@@H]3CCCC[C@@H](C3)C2)C1` as the compound, how does the EC50 read?
Its EC50 is 12.5 nM.

With `c1ccc2c(c1)nc(-c1nnc[nH]1)n2[C@H]1C[C@H]2CCC[C@@H](C1)N2[C@@H]1C[C@@H]2CCCC[C@@H](C2)C1` as the compound, how does the EC50 read?
The EC50 was 5.8 nM.

How did the EC50 turn out when `c1ccc2c(c1)nc(Cc1cnccn1)n2[C@H]1C[C@H]2CCC[C@@H](C1)N2[C@@H]1C[C@@H]2CCCC[C@@H](C2)C1` was run?
The EC50 was 12.6 nM.

Same assay, conditions: ORL-1 receptor activity response, procedure of Example 22

`O=C(O)CN1CCC[C@@H]1c1nc2ccccc2n1[C@H]1C[C@H]2CCC[C@@H](C1)N2C1CCCCCCCCC1` was tested. Which “GTPγS ORL-1 Emax [mean ± SEM]” value did it give?
Its value is 125.3 ± 4.3%.

With `O=C(O)CCN1CC[C@H](c2nc3ccccc3n2[C@H]2C[C@H]3CCC[C@@H](C2)N3[C@@H]2C[C@@H]3CCCC[C@@H](C3)C2)C1` as the compound, how does the “GTPγS ORL-1 Emax [mean ± SEM]” value read?
The value was 90 ± 3%.

Which “GTPγS ORL-1 Emax [mean ± SEM]” value does the source give for `COCCOCCOCCN1CCC[C@H](c2nc3ccccc3n2[C@H]2C[C@H]3CCC[C@@H](C2)N3[C@H]2C[C@@H]3CCC[C@@H](C3)C2)C1` here?
The value was 24.3 ± 0.9%.

For `O=C(O)CCN1CCC(c2nc3ccccc3n2[C@H]2C[C@H]3CCC[C@@H](C2)N3[C@@H]2C[C@@H]3CCCC[C@@H](C3)C2)CC1`, which “GTPγS ORL-1 Emax [mean ± SEM]” value is on record?
The value was 104.3 ± 5.9%.

With `O=C(O)CN1CCC(c2nc3ccccc3n2[C@H]2C[C@H]3CCC[C@@H](C2)N3[C@@H]2C[C@@H]3CCCC[C@@H](C3)C2)CC1` as the compound, how does the “GTPγS ORL-1 Emax [mean ± SEM]” value read?
Its value is 106 ± 3.8%.

`COCCOCCOCCN1CCC[C@@H](c2nc3ccccc3n2[C@H]2C[C@H]3CCC[C@@H](C2)N3[C@H]2C[C@@H]3CCC[C@@H](C3)C2)C1` was tested. Which “GTPγS ORL-1 Emax [mean ± SEM]” value did it give?
Its value is 23.0 ± 0.6%.

With `O=C(O)CNc1nc2ccccc2n1C1C[C@H]2CCC[C@@H](C1)N2[C@H]1C[C@@H]2CCC[C@@H](C2)C1` (stereo partly drawn) as the compound, how does the “GTPγS ORL-1 Emax [mean ± SEM]” value read?
Its value is 21.67 ± 0.33%.

How did the “GTPγS ORL-1 Emax [mean ± SEM]” value turn out when `Cc1nnc(Cc2nc3ccccc3n2[C@H]2C[C@H]3CCC[C@@H](C2)N3[C@@H]2C[C@@H]3CCCC[C@@H](C3)C2)[nH]1` was run?
The value was 28.8 ± 2.5%.

For `O=C(O)CN1CCC[C@H]1c1nc2ccccc2n1[C@H]1C[C@H]2CCC[C@@H](C1)N2[C@@H]1C[C@@H]2CCCC[C@@H](C2)C1`, which “GTPγS ORL-1 Emax [mean ± SEM]” value is on record?
The value was 55.7 ± 3.7%.

Which “GTPγS ORL-1 Emax [mean ± SEM]” value does the source give for `c1ccc2c(c1)nc(-c1cnccn1)n2[C@H]1C[C@H]2CCC[C@@H](C1)N2[C@@H]1C[C@@H]2CCCC[C@@H](C2)C1` here?
The value was 10.3 ± 0.9%.

For `c1ccc2c(c1)nc(-c1cnccn1)n2[C@H]1C[C@H]2CCC[C@@H](C1)N2[C@H]1C[C@@H]2CCC[C@@H](C2)C1`, which “GTPγS ORL-1 Emax [mean ± SEM]” value is on record?
Its value is 7.0 ± 0.7%.

`Cc1nc(C)c(-c2nc3ccccc3n2[C@H]2C[C@H]3CCC[C@@H](C2)N3[C@H]2C[C@@H]3CCC[C@@H](C3)C2)s1` was tested. Which “GTPγS ORL-1 Emax [mean ± SEM]” value did it give?
The value was 21 ± 1%.

With `COC(=O)/N=c1\n(CC(N)=O)c2ccccc2n1C1CCN(C2CCCCCCC2)CC1` as the compound, how does the “GTPγS ORL-1 Emax [mean ± SEM]” value read?
The value was 66.0 ± 4.7%.

Which “GTPγS ORL-1 Emax [mean ± SEM]” value does the source give for `Cn1ccnc1CN1CCOC[C@H]1Cc1nc2ccccc2n1[C@H]1C[C@H]2CCC[C@@H](C1)N2[C@@H]1C[C@@H]2CCCC[C@@H](C2)C1` here?
The value was 23.3 ± 0.9%.

For `c1ccc2c(c1)nc(Cc1nnn[nH]1)n2[C@H]1C[C@H]2CCC[C@@H](C1)N2[C@@H]1C[C@@H]2CCCC[C@@H](C2)C1`, which “GTPγS ORL-1 Emax [mean ± SEM]” value is on record?
Its value is 17.3 ± 0.3%.

How did the “GTPγS ORL-1 Emax [mean ± SEM]” value turn out when `Cc1cc(-c2nc3ccccc3n2[C@H]2C[C@H]3CCC[C@@H](C2)N3[C@H]2C[C@@H]3CCC[C@@H](C3)C2)no1` was run?
The value was 23.3 ± 0.9%.

Which “GTPγS ORL-1 Emax [mean ± SEM]” value does the source give for `O=C1CC[C@@H](Cc2nc3ccccc3n2[C@H]2C[C@H]3CCC[C@@H](C2)N3[C@@H]2C[C@@H]3CCCC[C@@H](C3)C2)N1` here?
Its value is 14.3 ± 1.0%.

With `O=C(O)CN1CCC(Cc2nc3ccccc3n2[C@H]2C[C@H]3CCC[C@@H](C2)N3[C@@H]2C[C@@H]3CCCC[C@@H](C3)C2)CC1` as the compound, how does the “GTPγS ORL-1 Emax [mean ± SEM]” value read?
Its value is 85.0 ± 2.6%.

Which “GTPγS ORL-1 Emax [mean ± SEM]” value does the source give for `CS(=O)(=O)NCCN1CCC[C@@H](Cc2nc3ccccc3n2[C@H]2C[C@H]3CCC[C@@H](C2)N3[C@@H]2C[C@@H]3CCCC[C@@H](C3)C2)C1` here?
The value was 16.3 ± 0.3%.

For `c1ccc2c(c1)nc(-c1nnc[nH]1)n2[C@H]1C[C@H]2CCC[C@@H](C1)N2[C@@H]1C[C@@H]2CCCC[C@@H](C2)C1`, which “GTPγS ORL-1 Emax [mean ± SEM]” value is on record?
The value was 22.3 ± 1.3%.

`c1ccc2c(c1)nc(Cc1cnccn1)n2[C@H]1C[C@H]2CCC[C@@H](C1)N2[C@@H]1C[C@@H]2CCCC[C@@H](C2)C1` was tested. Which “GTPγS ORL-1 Emax [mean ± SEM]” value did it give?
The value was 53.7 ± 4.2%.

— patent US9090618B2, “Substituted benzimidazole-type piperidine compounds and uses thereof” (dated 2015)
